Assay results reported in US7879572B2, “Regulation of F1-ATPase beta subunit cellular location” (Board of Supervisors of Louisiana State University And …, priority 2004, dated 2011).
“Also recorded” adds a separate entry of the source. Read-outs that look alike come from different tables or passages of the source.

Sequences of proteins named here, by UniProt entry; tags and fusion partners are left off. A change or cut given only in a name is not applied to a line headed by its entry. Residues count along the entry.
UniProt P32238, whole entry: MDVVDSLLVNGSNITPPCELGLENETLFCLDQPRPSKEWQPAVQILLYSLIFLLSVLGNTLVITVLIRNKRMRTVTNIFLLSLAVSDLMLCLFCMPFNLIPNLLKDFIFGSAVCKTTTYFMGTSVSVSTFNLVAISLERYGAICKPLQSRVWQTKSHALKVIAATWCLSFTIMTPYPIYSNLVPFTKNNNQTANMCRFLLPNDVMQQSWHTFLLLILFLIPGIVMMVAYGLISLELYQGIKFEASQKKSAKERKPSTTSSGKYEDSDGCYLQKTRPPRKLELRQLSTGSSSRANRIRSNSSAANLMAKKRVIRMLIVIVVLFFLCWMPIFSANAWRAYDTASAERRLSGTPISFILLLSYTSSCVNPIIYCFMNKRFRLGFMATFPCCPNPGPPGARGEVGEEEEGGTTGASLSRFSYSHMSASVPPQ
UniProt P25929, whole entry: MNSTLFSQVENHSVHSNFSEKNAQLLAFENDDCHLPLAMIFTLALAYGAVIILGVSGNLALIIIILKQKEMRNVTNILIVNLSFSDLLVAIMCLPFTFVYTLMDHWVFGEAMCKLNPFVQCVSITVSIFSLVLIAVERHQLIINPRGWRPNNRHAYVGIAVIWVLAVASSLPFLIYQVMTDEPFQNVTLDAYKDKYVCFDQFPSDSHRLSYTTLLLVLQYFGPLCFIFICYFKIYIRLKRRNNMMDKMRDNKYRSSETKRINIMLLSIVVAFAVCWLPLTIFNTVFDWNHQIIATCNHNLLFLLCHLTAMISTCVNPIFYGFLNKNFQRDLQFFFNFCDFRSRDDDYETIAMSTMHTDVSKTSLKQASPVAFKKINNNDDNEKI
UniProt P10719, 47-529: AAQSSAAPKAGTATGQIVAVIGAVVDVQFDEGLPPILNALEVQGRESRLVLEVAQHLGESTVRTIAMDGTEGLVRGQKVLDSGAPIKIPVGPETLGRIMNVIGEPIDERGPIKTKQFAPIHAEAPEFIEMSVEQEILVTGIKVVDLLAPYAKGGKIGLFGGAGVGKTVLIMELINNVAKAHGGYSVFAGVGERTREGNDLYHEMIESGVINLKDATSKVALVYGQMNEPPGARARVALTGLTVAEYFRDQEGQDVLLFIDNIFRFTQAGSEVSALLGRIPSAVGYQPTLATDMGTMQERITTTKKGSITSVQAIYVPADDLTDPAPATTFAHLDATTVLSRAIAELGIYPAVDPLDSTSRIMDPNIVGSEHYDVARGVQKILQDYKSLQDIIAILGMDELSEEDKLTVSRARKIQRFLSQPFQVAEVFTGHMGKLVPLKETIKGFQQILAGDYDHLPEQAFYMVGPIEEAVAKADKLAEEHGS
UniProt P10719, 110-529: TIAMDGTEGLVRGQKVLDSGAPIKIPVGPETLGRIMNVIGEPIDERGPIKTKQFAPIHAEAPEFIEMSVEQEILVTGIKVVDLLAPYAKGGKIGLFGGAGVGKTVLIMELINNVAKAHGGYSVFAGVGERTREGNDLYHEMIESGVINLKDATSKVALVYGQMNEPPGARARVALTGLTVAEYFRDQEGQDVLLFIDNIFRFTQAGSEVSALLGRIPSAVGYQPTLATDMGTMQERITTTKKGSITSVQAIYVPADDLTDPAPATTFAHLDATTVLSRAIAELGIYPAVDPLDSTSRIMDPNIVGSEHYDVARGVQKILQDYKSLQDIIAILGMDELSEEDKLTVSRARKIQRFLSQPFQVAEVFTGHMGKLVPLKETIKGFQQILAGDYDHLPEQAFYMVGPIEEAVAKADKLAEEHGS
UniProt P41145: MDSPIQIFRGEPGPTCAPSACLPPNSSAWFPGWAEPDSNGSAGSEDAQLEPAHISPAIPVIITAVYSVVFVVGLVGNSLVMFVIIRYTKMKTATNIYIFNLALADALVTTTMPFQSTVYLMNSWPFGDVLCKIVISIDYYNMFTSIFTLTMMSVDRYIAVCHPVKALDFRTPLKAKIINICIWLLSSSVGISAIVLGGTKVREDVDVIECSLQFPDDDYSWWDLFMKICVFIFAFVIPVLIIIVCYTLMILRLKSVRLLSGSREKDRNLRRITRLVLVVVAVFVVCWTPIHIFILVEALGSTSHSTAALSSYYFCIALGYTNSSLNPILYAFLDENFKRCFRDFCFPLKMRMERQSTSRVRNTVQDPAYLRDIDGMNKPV

Experiments:
[1] = system: baboons; settings: single-choice diet; cited from earlier work
[2] = system: F1-ATPase alpha subunit-RFP; assay: Cellular location of F1-ATPase alpha subunit-RFP in transfected HepG2 cells (deconvolution/confocal microscopy); assay type: cell-based, human; settings: 0.5 or 2 μM enterostatin, 15, 30 or 60 min
Text: Generation of F1-ATPase alpha subunit-RFP fusion protein. The F1-ATPase α-subunit clone (1,662 bp) was generated by PCR from an amygdala cDNA library using F1-ATPase α-subunit forward primer (5′[…]3′ (SEQ ID NO. 3), Sac I recognition site underlined) and F1-ATPase α-subunit reverse primer (5′ […]3′ (SEQ ID NO. 4), Hind III recognition site underlined). The construct was then transformed into DH5α cells. Transformants were screened, and positive clones containing plasmid with the correct orientation of the insert were cultured.
(§1) Cell Culture and Transfection. Human liver cells (HepG2 cell line, Pennington Biomedical Research Center, Baton Rouge, La.) were grown and maintained in Dulbecco's modified eagle's medium (Gibco, Carlsbad, Calif.) containing 10% fetal bovine serum, penicillin (1,000 u/ml), and streptomycin (1,000 u/ml). For transient transfection experiments, the HepG2 cell line was seeded into 24-well plates (Corning, VWR, West Chester, Pa.) at 50-70% confluency. For each well of HepG2 cells, 0.8 μg of either the pATPase beta-GFP or pATPase alpha-RFP and 2.4 μl of Fugene6 (Roche, Indianapolis, Ind.) were incubated with 100 μl of Optimem (Gibco) for 30 min at room temperature. The cells were transfected using this mixture in 1 ml total volume for 16-18 h and visualized by microscopy 18-24 h after the transfection. […]

[3] = in vivo; cited from earlier work
[4] = biological target: cholecystokinin A receptors (Homo sapiens, UniProt P32238); settings: cited from earlier work
[5] = system: islet cells; settings: cited from earlier work
[6] = system: plasma membranes from HepG2 cells; assay: 125I-labelled free Apo A1 binding to HepG2 plasma membranes (planned); parameters: species or system human; settings: planned study
Text: HepG2 cells or primary hepatocytes cultures. […] The amount of the F1-ATPase β-subunit in the plasma membranes will be measured using the BATPS-GFP construct as described above.

[7] = system: sheep; settings: single-choice diet; cited from earlier work
[8] = system: humans; settings: intravenous injection; cited from earlier work
[9] = system: rabbits; settings: single-choice diet; cited from earlier work
[10] = biological target: Neuropeptide Y1 receptors (Homo sapiens, UniProt P25929); settings: cited from earlier work
[11] = system: galanin receptors; settings: cited from earlier work
[12] = biological target: T1, rat F1-ATPase β-subunit (Rattus norvegicus, UniProt P10719); assay: 125I-β-casomorphin binding to recombinant F1-ATPase β-subunit, with and without cold enterostatin or analogs
T1 construct: made in house
Text: We have investigated that the binding activity of the purified protein with a labeled antagonist, β-casomorphin (18, 52), in the absence and presence of cold enterostatin. (See Appendix B) ^125I-β-casomorphin weekly binds to rat F1-ATPase β-subunit. Binding was promoted by low concentrations of cold enterostatin but displaced by higher concentrations. The relationship between binding activity and feeding behavior was studied by examining the ability of a number of enterostatin analogs to affect β-casomorphin binding to the F1-ATPase β-subunit.
It has been discovered that the ability of analogues to affect binding of a labeled β-casomorphin (an enterostatin antagonist (44, 52)) to recombinant rat F1-ATPase β-subunit was closely correlated with their enterostatin-like biological activity. […] To investigate the partitioning of the F1-ATPase β-subunit into plasma membranes, HepG2 cells were transfected with either F1-ATPase β-subunit-green fluorescent protein (GFP) or F1-ATPase α-subunit-red fluorescent protein (RFP) constructs. The effects of enterostatin on the intracellular localization of the proteins were studied using deconvolution or confocal microscopy. […]

[13] = system: breast cancer or prostate cancer tumor cell lines; assay: Cancer cell apoptosis and survival under hypoxic challenge (planned); assay type: cell-based; settings: expected result of planned study
Text: Cancer cells. The effects of enterostatin on the response of cancer cells to hypoxic challenge will be studied. […] These transfected cells could also be used to search for small molecule agonists/antagonists or mimetics of enterostatin.

[14] = biological target: T2, F1-ATPase beta subunit-GFP (Rattus norvegicus, UniProt P10719); assay: Cellular location of F1-ATPase beta subunit-GFP in transfected HepG2 cells (deconvolution/confocal microscopy); assay type: cell-based, human; settings: 0.5 and 2 uM enterostatin, 15, 30 or 60 min
T2 construct: The F1-ATPase β-subunit clone (1,254 bp) was generated by PCR; expressed in transfected cells; host or cells: HepG2 (human liver cells), transient transfection
Text: Generation of F1-ATPase beta subunit-GFP fusion protein. The F1-ATPase β-subunit clone (1,254 bp) was generated by PCR from an amygdala cDNA library using F1-ATPase β-subunit forward primer (5′[…]3′ (SEQ ID NO. 1), Sac I recognition site underlined) and F1-ATPase β-subunit reverse primer (5′[…]3′ (SEQ ID NO. 2), Hind III recognition site underlined), according to procedures described in Appendix B. The PCR product was cloned into the pEGFP-C1 vector (Clonetech, Palo Alto, Calif.) between the Sac I and Hind III sites as shown in FIG. 1A. The construct was then transformed into DH5α cells. Transformants were screened and positive clones containing plasmid with the correct orientation of the insert were cultured.
as §1, with “temperature.” for “temperature. The cells were transfected using this mixture in 1 ml total volume for 16-18 h and visualized by microscopy 18-24 h after the transfection.”

[15] = biological target: kappa-opioid receptors (Homo sapiens, UniProt P41145); settings: cited from earlier work
[16] = mainly into lymphatic system; cited from earlier work
[17] = read-out: Kd, low affinity binding to brain membrane preparation; cited from earlier work
[18] = system: SK-N-MC neuroepithelioma cells; settings: read-out: Kd, binding to SK-N-MC neuroepithelioma cells; cited from earlier work
[19] = system: rats; settings: cited from earlier work; for duration of action on feeding: single injection
[20] = intracerebroventricular vs intraperitoneal or intragastric administration; cited from earlier work
[21] = system: Human endothelial cells; assay: Angiogenesis in human endothelial cells / in vitro adipose tissue angiogenesis assay (planned); assay type: cell-based; settings: expected result of planned study
Text: Human endothelial cells. Human endothelial cells derived from umbilical veins or other sources will be used to study the effect of enterostatin on angiogenesis. The ability to bind angiostatin will be correlated with the level of beta subunit F1 ATPsynthase in the plasma membranes, and the co-localization of angiostatin and enterostatin binding shown by confocal immunofluorescent microscopy. Further, the effect of transfection of BATPS-GFP construct on these functions will be studied. The effects of enterostatin on vessel proliferation in an in vitro assay of adipose tissue angiogenesis will also be studied.

[22] = rats, three-choice macronutrient diet

CC(C)[C@H](N)C(=O)N1CCC[C@H]1C(=O)N[C@@H](CC(=O)O)C(=O)N1CCC[C@H]1C(=O)N[C@@H](CCCNC(=N)N)C(=O)O [enterostatin, Val-Pro-Asp-Pro-Arg]
food intake [1]: reduce food intake
distribution of expressed F1-ATPase alpha subunit-RFP [2]: did not alter the location; also recorded: did not change the distribution
corticosterone secretion [3]: enhanced corticosterone secretion
binding to cholecystokinin A receptors [4]: not to bind
insulin secretion from islets ([5]; 16.7 mM glucose, enterostatin 10^−9 to 10^−5 M, dose-dependent): inhibited insulin secretion
intracellular cyclic AMP content ([5]; increase produced by U50,488 (100 nM)): reduced the increase in intracellular cyclic AMP content
stimulated insulin secretion ([5]; stimulated by glybenclamide (5.0 and 10 μM), TPA (50 and 100 nM), U50,488 (100 nM)): also inhibited insulin secretion
binding of 125I-labelled free Apo A1 to plasma membranes [6]: increases the binding
food intake [7]: reduce food intake
food intake [8]: has not been found to reduce food intake
subjective feeling of hunger [8]: reduce the subjective feeling of hunger
food intake [9]: reduce food intake
binding to Neuropeptide Y1 receptors [10]: not to bind
binding to galanin receptors [11]: not to bind
effect of cold enterostatin on 125I-β-casomorphin binding ([12]; higher concentrations of cold enterostatin): displaced
effect of cold enterostatin on 125I-β-casomorphin binding ([12]; low concentrations of cold enterostatin): promoted
apoptosis and death of cancer cells [13]: increase apoptosis and death of cancer cells
location of F1-ATPase beta subunit-GFP [14]: induced a movement of the protein to the perimeter of cells; also recorded: clearly relocated toward the cell periphery
location of F1-ATPase beta subunit-GFP ([14]; listed as Enterostatin): induced movement of the F1-ATPase β-subunit-GFP to the periphery of cells
binding to kappa-opioid receptors [15]: not to bind
absorption across the intestine [16]: limited and slow
Kd [17]: 230 nM
Kd [18]: 40 nM
daily intake of dietary fat ([19]; chronic icv administration from mini-osmotic pumps, single-choice HF or two-choice HF/LF diet): attenuated the daily intake of dietary fat
fat deposition and body weight gain ([19]; chronic icv administration, HF or HF/LF diet): reduction in fat deposition and body weight gain
dose-response curve on food intake ([19]; inhibition at lower doses, stimulation at higher doses): biphasic
energy intake or change in body weight gain ([19]; rats chronically treated, low-fat diet for seven days): no significant reduction
carbohydrate or protein intake [19, 22]: no effect
intake of the fat macronutrient [19, 22]: reduced intake of the fat macronutrient
diet intake, two-choice high-fat (HF) and low-fat (LF) paradigm ([19]; rats, two-choice HF/LF diet): reduced only intake of the HF diet
duration of action on feeding ([19]; rats adapted to a six-hour feeding schedule): lasting up to six hours
duration of action on feeding ([19]; rats adapted to ad-libitum feeding): up to 24 hours
gastric emptying [20]: inhibition of gastric emptying was observed only after intracerebroventricular administration
angiogenesis [21]: will inhibit angiogenesis
